By UniProt entry, the sequences of proteins in these tests, tags left out.
UniProt P08173, whole entry: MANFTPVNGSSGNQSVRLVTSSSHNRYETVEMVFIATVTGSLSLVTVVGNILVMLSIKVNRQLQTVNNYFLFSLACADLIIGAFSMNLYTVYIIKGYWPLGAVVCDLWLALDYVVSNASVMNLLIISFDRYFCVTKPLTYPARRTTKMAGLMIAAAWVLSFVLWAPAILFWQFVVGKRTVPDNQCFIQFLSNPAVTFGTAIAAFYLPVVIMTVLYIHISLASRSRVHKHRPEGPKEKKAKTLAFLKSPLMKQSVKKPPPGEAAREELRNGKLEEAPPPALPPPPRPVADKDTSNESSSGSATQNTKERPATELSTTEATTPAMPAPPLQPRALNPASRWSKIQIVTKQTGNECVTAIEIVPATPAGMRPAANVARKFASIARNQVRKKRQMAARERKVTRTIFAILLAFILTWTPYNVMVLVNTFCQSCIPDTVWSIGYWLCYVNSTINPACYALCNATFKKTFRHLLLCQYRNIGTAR

In ChEMBL document CHEMBL4043296 (J Med Chem, 2018):

Experiments:
[1] = biological target: T1, Muscarinic acetylcholine receptor M4 (Homo sapiens, UniProt P08173); test: Antagonist activity at human SP/Myc epitope-tagged muscarinic M4 receptor expressed in HEK293T cells assessed as inhibition of carbachol-induced RLuc8-fused Galphaq activation preincubated for 15 mins followed by carbachol induction measured after 2 mins by BRET assay; format: cell-based, HEK-293T
[2] = biological target: T1, Muscarinic acetylcholine receptor M4; test: Antagonist activity at human SP/Myc epitope-tagged muscarinic M4 receptor expressed in HEK293T cells assessed as inhibition of carbachol-induced mVenus-fused beta-arrestin2 recruitment preincubated for 15 mins followed by carbachol induction measured after 2 mins by BRET assay; format: cell-based, HEK-293T

CN1[C@@H]2C[C@@H](OC(=O)[C@H](CO)c3ccccc3)C[C@H]1[C@@H]1O[C@H]12
IC50 [1]: 5.37 nM | IC50 [2]: 0.575 nM
